Source: paper PMC10895676, “Antiviral Activity of Lipophilic Nucleoside Tetraphosphate Compounds” (Journal of Medicinal Chemistry, 2024)

Assays:
HIV-2 (ROD) [1] = experiment: Anti-HIV replication assay, HIV-2 (ROD) in wild-type CEM/0 cells; type: cell-based; conditions: CC50/EC50, HIV-2 (ROD) in CEM cells
Procedure: (§1) Inhibition of HIV-1(HE)- and HIV-2(ROD)-induced cytopathogenicity in wild-type CEM/0 CEM CD4^+ T-cells and thymidine kinase-deficient CEM/TK^– cell cultures was measured in microtiter 96-well plates containing ∼3 × 10^5 CEM cells/mL infected with 100 CCID50 of HIV per milliliter and containing appropriate dilutions of the test compounds. After 4–5 days of incubation at 37 °C in a CO2-controlled humidified atmosphere, virus-induced cellular effects and syncytia cell formation were examined microscopically.

HIV-2 (ROD) [2] = experiment: Anti-HIV replication assay, HIV-2 (ROD) in thymidine kinase-deficient CEM/TK– cells; type: cell-based; conditions: CC50/EC50, HIV-2 (ROD) in CEM/TK– cells
Procedure: as §1

**Q.** Which results are given for CCCCOP(=O)(OCCCC)OP(=O)(O)OP(=O)(O)OP(=O)(O)OC[C@@H]1C=C[C@H](n2cc(C)c(=O)[nH]c2=O)O1 [4a, δ-(Alkyl-C4; alkyl-C4)-d4T4P]?
**A.** selectivity index (SI) (HIV-2 (ROD) [1]): >625; selectivity index (SI) (HIV-2 (ROD) [2]): >6
